Rows were chosen to be rich in hits. Some 16% of all compounds tested hit in one or more screens of this group.
TDP1 inh: inhibitors of human tyrosyl-DNA phosphodiesterase TDP1; recombinant TDP1, AlphaScreen DNA substrate cleavage; Potency, µM (series often up to 130 µM), actives largely listed as inhibitors; 0.28% of 350,000 active; further: nearly all actives have a fitted effect of over 40% in size
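E. coli-derived human Tdp1, 1 nM final. Cpd preinc 15 min RT; substrate 15 nM final, 5 min RT; AS bead mix 10 ug/ml final, 10 min RT. Signal loss = tyrosine-FITC cleavage. No-enzyme wells = max signal.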
uPA surface inh: blocks generation of uPA at the cell surface; cell surface uPA generation assay, qHTS; Potency, µM (doses to about 38.3 µM), hits mostly inhibitors; 0.31% of 330,000 active; active means well fitted inhibition curve with a large enough effect; inconclusive means small, poorly fitted or top-dose-only effect; inactive means no such curve, though single readings can be large or run the other way; tested in mouse RAW 264.7 cells; further: nearly all actives have a fitted effect of over 55% in size
TDP1 cell noCPT: qHTS for Inhibitors of human tyrosyl-DNA phosphodiesterase 1 (TDP1): qHTS in cells in absence of CPT; DT40 Tdp1-/- hTDP1 cells, no CPT, ATP luminescence, 48 h; Potency, µM (doses to about 46.2 µM), actives largely listed as inhibitors; 15% of 420,000 active; AID 686978, 2013; further: nearly all actives have a fitted effect of over 55% in size
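Camptothecin absent (DMSO only). Human TDP1-complemented DT40 knockout cells, 400 cells/well, 37 °C for minimum 48 hr; ATP measured via CellTiter-Glo, 30 min dark incubation, luminescence.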
miR-21 reporter: miR-21 reporter, rising signal | AID 2288 | HeLa miR-21 FLuc reporter, luciferase, 48 h | 340,000 tested, under 10 active | Potency, µM (doses to about 38.3 µM); active = well fitted rising curve with a large enough effect; inconclusive = small, poorly fitted or top-dose-only effect; inactive = no such curve, though single readings can be large or run the other way;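 note: miR-21 action dims this reporter so a rising signal means less miR-21 action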
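Compounds were titrated across several concentrations (up to approximately 40 uM) and incubated 48 hours with HeLa miR-21-FLuc reporter cells (miR-21 target sequence downstream of FLuc, endogenous miR-21). Readout was firefly luciferase luminescence after lytic detection reagent.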
TDP1 cell CPT: DT40-hTDP1 cell growth loss with CPT; Potency, µM (top dose mostly 46.2 µM), usual class: inhibitors; chicken DT40 Tdp1-/-;hTDP1 cells + 20 nM CPT, ATP luminescence, 48 h; 12% of 420,000 active; AID 686979; further: nearly all actives have a fitted effect of over 55% in size
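Chicken DT40 Tdp1-/- cells stably complemented with human TDP1 were seeded at 400 cells/well in medium containing 20 nM camptothecin, exposed to pin-transferred compounds, and grown at 37 °C for at least 48 hr. Viability was read as ATP luminescence.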
Large screens that a line does not name were inactive. Unless noted, the call rests on the fitted dose curve; in most records, active means well fitted curve in the direction sought with a large enough effect; inconclusive means small, poorly fitted or top-dose-only effect, or another doubt; inactive means no such curve, though single readings can be large; an effect the other way counts as inactive or inconclusive.

NNC(=S)Nc1c(F)cc(F)cc1Br	TDP1 cell noCPT 13µM, TDP1 cell CPT inconclusive
Cc1cc(C(=O)Nc2c(F)cc(F)cc2Br)cs1	TDP1 cell CPT inconclusive
COc1ccc(/C=C/C(=O)Nc2ccc3nc4c(c(Nc5ccc(OC)c(OC)c5)c3c2)CCCC4)cc1	TDP1 cell noCPT 4.6µM, miR-21 reporter inconclusive, TDP1 cell CPT 3.7µM (no result: uPA surface inh)
COc1ccc(Nc2c3c(nc4ccc(NC(=O)/C=C/c5cc(OC)c(OC)c(OC)c5)cc24)CCCC3)cc1OC	TDP1 cell noCPT 1.8µM, miR-21 reporter inconclusive, TDP1 cell CPT 1µM (no result: uPA surface inh)
COc1ccc(Nc2c3c(nc4ccccc24)CCCC3)cc1OC	TDP1 cell noCPT inconclusive, TDP1 cell CPT inconclusive
CCCCNS(=O)(=O)c1ccc(NC(=O)C(Sc2ccccc2)c2ccccc2)cc1 (stereo not drawn)	TDP1 cell noCPT inconclusive, TDP1 cell CPT inconclusive
COc1ccc(OC)c(CN2C(=O)c3ccccc3C2c2nnnn2C2CCCC2)c1 (stereo not drawn)	TDP1 cell noCPT 16µM, TDP1 cell CPT inconclusive (no result: TDP1 inh, uPA surface inh, miR-21 reporter)
COc1ccc(CN2C(=O)c3ccccc3C2c2nnnn2-c2ccc3c(c2)OCCO3)cc1OC (stereo not drawn)	TDP1 cell noCPT 21µM, TDP1 cell CPT 15µM (no result: TDP1 inh, uPA surface inh, miR-21 reporter)
COc1ccc(OC)c(CN2C(=O)c3ccccc3C2c2nnnn2Cc2ccccc2)c1 (stereo not drawn)	TDP1 cell noCPT 21µM, TDP1 cell CPT inconclusive (no result: TDP1 inh, uPA surface inh, miR-21 reporter)
COC(=O)C1NC(=O)N2C(C(=O)OC)C(C)(C)S[C@H]12 (stereo partly drawn)	none (no result: TDP1 inh, miR-21 reporter)
CCN(C(=O)c1ccc2c(=O)n3c(nc2c1)CCCCC3)c1cc(C)ccc1C	TDP1 cell noCPT inconclusive, TDP1 cell CPT inconclusive (no result: uPA surface inh)
COc1ccc(-c2cc(=O)c3c(O)cc(O)cc3o2)cc1O	none (no result: uPA surface inh, TDP1 cell noCPT, miR-21 reporter, TDP1 cell CPT)
COc1ccc(-c2cc(=Nc3c(C)n(C)n(-c4ccccc4)c3=O)c3ccccc3o2)cc1	TDP1 cell noCPT 21µM, TDP1 cell CPT inconclusive
COc1ccc(-c2c/c(=N\c3nc(-c4ccccc4)c(C)s3)c3ccccc3o2)cc1O	TDP1 cell noCPT 4.1µM, TDP1 cell CPT 5.8µM
COc1ccc(CC(NC(C)=O)C(=O)NC2CCN(S(=O)(=O)c3ccc(NC(C)=O)cc3)CC2)cc1OC (stereo not drawn)	TDP1 cell noCPT inconclusive
O=C(c1cccc(C(F)(F)F)c1)N1CCOC12CCN(c1ncc(C(F)(F)F)cc1Cl)CC2	TDP1 cell noCPT 23µM, TDP1 cell CPT 23µM
O=C(CN1CCN(c2ncc(C(F)(F)F)cc2Cl)CC1)N1CCN(c2ncc(C(F)(F)F)cc2Cl)CC1	TDP1 cell noCPT 16µM, TDP1 cell CPT 18µM
O=C(c1cccs1)N1CCN(c2ncc(C(F)(F)F)cc2Cl)CC1	TDP1 cell noCPT inconclusive, TDP1 cell CPT inconclusive
CN1CCN(C(=O)C2CCN(c3ncc(C(F)(F)F)cc3Cl)CC2)CC1	TDP1 cell noCPT 21µM, TDP1 cell CPT inconclusive
Nc1cccc(-c2cn3ccsc3n2)c1	none (no result: uPA surface inh)
CCC/C=C(\CCC)C(NS(=O)(=O)c1cccc2cccnc12)c1ccc(C(=O)OC)cc1 (stereo not drawn)	uPA surface inh inconclusive, TDP1 cell noCPT 23µM, TDP1 cell CPT inconclusive
CCC/C=C(\CCC)C(NC(=O)OCC(C)C)c1ccc(C(=O)OC)cc1 (stereo not drawn)	TDP1 cell noCPT 15µM, TDP1 cell CPT 23µM
c1ccc(CCCNc2ncccn2)cc1	none
Cc1cccc(Oc2ccc3c(c2)cc(C(=O)O)n3C)c1	none
CS(=O)(=O)Nc1cccc(-c2ccc3ncnc(N4CCNCC4)c3c2)c1	TDP1 cell noCPT inconclusive, TDP1 cell CPT 15µM (no result: TDP1 inh, uPA surface inh, miR-21 reporter)
CS(=O)(=O)Nc1cccc(-c2ccc3ncnc(Nc4ccccc4)c3c2)c1	TDP1 cell noCPT 21µM, TDP1 cell CPT inconclusive (no result: TDP1 inh, uPA surface inh, miR-21 reporter)
CS(=O)(=O)Nc1cccc(-c2ccc3ncnc(NC4CCNCC4)c3c2)c1	none (no result: TDP1 inh, uPA surface inh, miR-21 reporter)
CN(C)c1ncnc2ccc(-c3cccc(NS(C)(=O)=O)c3)cc12	TDP1 cell noCPT 16µM, TDP1 cell CPT 21µM (no result: TDP1 inh, uPA surface inh, miR-21 reporter)
O=C(CSc1nnc(NC(=O)C2CC2)s1)Nc1ccccc1	none
COc1ccccc1C(C)NC(=O)CCNC(=O)c1ccc(Cl)cc1 (stereo not drawn)	none (no result: miR-21 reporter)
Cc1cccc(CCNC(=O)c2nc(-c3ccc(Cl)cc3)n3c2CCCCC3)c1	TDP1 cell noCPT 9.2µM, TDP1 cell CPT 10µM (no result: uPA surface inh)
